{"source": "patent US6809107B1", "about": "“Neurotrophic pyrrolidines and piperidines, and related compositions and methods” (Ortho-McNeil Pharmaceutical, Inc., priority 1999, dated 2004)", "test_system": "Primary Rat Hippocampal Cells", "test": "Neurite outgrowth assay in primary rat hippocampal cells", "format": "cell-based", "conditions": "MAP-2 immunofluorescence, active if greater than mean DMSO-treated control", "procedure": "Hippocampal cells are dissected from the brains of embryonic day 18 rat pups and dissociated with trypsin (1 mg/mL) and trituration. Cells are seeded at 30,000 cells/well in 96-well plates filled with 100 μL MEM and 10% FBS. At 7 days in culture, cells are fixed with 4% paraformaldehyde and immuno-fluorescence is performed.\nCultures are incubated with normal horse serum (1:50; Vector Labs) for about 20 min, rinsed and then incubated with primary antibody, microtubule associated-protein 2 (anti-mouse MAP-2; 1:1000; Chemicon) for about 2 h at about RT. Following primary antibody, cultures are rinsed and incubated with fluorescein anti-mouse IgG (rat absorbed; 1:50; Vector Labs) for about 1 h. After fluorescein incubation, the cultures are rinsed and read in PBS on a fluorescent plate reader (excitation: 485 nm; emission: 530 nm). […] The response to test compound is reported as percent of DMSO-treated control.", "data": [{"molecule": "CCC(C)(C)C(=O)C(=O)N1CCCC1c1csc([C@@H]2CCCN2C(=O)C(=O)C(C)(C)CC)n1", "note": "(stereo partly shown) [Compound 43]", "values": [{"measurement": "Rat Hippocampal Cell Response", "value": "120% of DMSO-treated control"}]}]}
